Laboratory results taken from patent publication US20250090514A1, “METHOD OF TREATING CANCER” (Laekna Limited, priority 2019, published 2025).

System: MDX191210 tumor cells (abiraterone resistant prostate carcinoma)

SMILES: Cn1ncc(Cl)c1-c1cc(C(=O)N[C@H](CN)Cc2cccc(F)c2)sc1Cl [afuresertib, N-{(1S)-2-amino-1-[(3-fluorophenyl)methyl]ethyl}-5-chloro-4-(4-chloro-1-methyl-1H-pyrazol-5-yl)-2-thiophenecarboxamide]
- Cell Viability (CTG Units) (Mean ± SEM)/Day 0 (second column; CTG values at the termination) (MDX191210 MiniPDX, afuresertib 75 mg/kg p.o. QD x 7, CFG920 300 mg/kg p.o. BID, at termination): 24516±2133 CTG Units
- Relative Proliferation (%) (MDX191210 MiniPDX, afuresertib 75 mg/kg p.o. QD x 7, CFG920 300 mg/kg p.o. BID, relative to vehicle): 53.37%
- antitumor activity in MDX191210 MiniPDX model (afuresertib 75 mg/kg, CFG920 300 mg/kg, P<0.01 vs vehicle): significant antitumor activity
